Test results as given in patent US20260248894A1, “COMBINATION THERAPY FOR PRETERM INFANTS” (Oak Hill Bio Ltd, priority 2022, published 2026).
Only a part of the results on these compounds is given; other tests are left out.

By UniProt entry, the sequences of proteins in these tests, tags left out. Chains listed by the source or under a name are the forms on record and can include a tag or linker. Residues count along the entry.
UniProt P05019, 49-118 limits assumed: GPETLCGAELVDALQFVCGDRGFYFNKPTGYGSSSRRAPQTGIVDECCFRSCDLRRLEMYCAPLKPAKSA
UniProt P17936, with tags, fused parts or gaps DEL119-195 limits assumed: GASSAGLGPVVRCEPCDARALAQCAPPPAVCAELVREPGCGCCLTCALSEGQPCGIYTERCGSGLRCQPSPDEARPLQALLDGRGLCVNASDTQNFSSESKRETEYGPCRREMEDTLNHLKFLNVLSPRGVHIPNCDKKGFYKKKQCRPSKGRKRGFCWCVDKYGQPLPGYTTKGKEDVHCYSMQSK

Key:
[1] = target: rhIGF-1/rhIGFBP-3 drug product (Homo sapiens, UniProt P05019+P17936, DEL119-195); assay: Small-molecule chemical compatibility: small-molecule content post mixing by RP-HPLC-UV or ion chromatography; assay type: physicochemical; settings: post mixing with rhIGF-1/rhIGFBP-3 drug product, last specified time point(s)
insulin = assay: Medication compatibility with insulin, considered in the risk evaluation; settings: no compatibility data available with insulin

CCC(=O)N(c1ccccc1)C1CCN(CCc2ccccc2)CC1
Chemical compatibility for small-molecule content (RP-HPLC) [1]: Yes (Chemical incompatibility was considered to be a loss of the small-molecule content of ~10% or more over the defined testing period) | expected reaction on the basis of theoretical evaluation and the solution pH (insulin): a reaction is not expected
